Assay results from PubChem BioAssay AID1422 (Emory University Molecular Libraries Screening Center, 2008).
“And” between values parts separate entries of the source, which are not always exact repeats. Equal values may be shown once. Only a part is listed here, and it is no random draw. The source made the active and inactive calls.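 Rule for the calls: active = percent inhibition above 40 after rounding to a whole number; inactive = the rest.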

The chains behind the UniProt entries cited, without tags or fusion partners. Where a name states a change or a piece, a line headed by the entry shows the natural chain unless it says otherwise.
UniProt P43116: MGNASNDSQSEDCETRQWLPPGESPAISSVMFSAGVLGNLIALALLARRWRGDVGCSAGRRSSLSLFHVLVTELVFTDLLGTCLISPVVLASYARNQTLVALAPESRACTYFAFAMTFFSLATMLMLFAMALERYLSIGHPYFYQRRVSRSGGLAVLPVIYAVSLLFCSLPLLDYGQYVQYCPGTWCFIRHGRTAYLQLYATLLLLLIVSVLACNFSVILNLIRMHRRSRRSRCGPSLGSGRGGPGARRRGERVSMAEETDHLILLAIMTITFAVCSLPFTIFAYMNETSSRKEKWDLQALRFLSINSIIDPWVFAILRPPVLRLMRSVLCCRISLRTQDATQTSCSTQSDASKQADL

molecular target: Prostaglandin E2 receptor EP2 subtype (Homo sapiens) (UniProt P43116); assay: blockers of PGE2-driven EP2 cAMP signalling – TR-FRET cAMP, C6 glioma cells, primary screen (AID 1422); details: C6 glioma cells expressing human EP2, cAMP TR-FRET; at 25 µM; stronger effect = higher value; cells stimulated with saturating PGE2;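 note: rat C6 glioma host cells with rolipram phosphodiesterase inhibitor present; the protocol text gives 20 µM as final concentration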

SMILES	inhibition
Nc1ccc([As](=O)(O)c2ccc(N)cc2)cc1	inactive: 10.7%
CCN(/C(=N/P(=O)(N1CCOCC1)N1CCOCC1)N1CCOCC1)c1ccc(OC)cc1	inactive: 6.36%
CC(=O)N1C2C3N(C(C)=O)C1C1N(C(C)=O)C(C(N1C(C)=O)N3C(C)=O)N2C(C)=O	inactive: 12%
O=[N+]([O-])c1cccc2n[nH]nc12	inactive: 13%
O=[N+]([O-])c1cc([N+](=O)[O-])c(CCNc2ccccc2)c([N+](=O)[O-])c1	inactive: 3.74%
CCc1nc2c(n1)c1c(non1O)c1c2no[n+]1[O-]	inactive: 14.6%
Cc1ccc(NP(=O)(Oc2ccccc2)Oc2ccccc2)nc1	inactive: 2.75%
COc1ccc(C2=NCC(CBr)S2)cc1 (stereo unspecified)	inactive: 2.54%
O=[N+]([O-])c1cccc(NC2=NCC(CBr)S2)c1 (stereo unspecified)	inactive: 3.24%
O=C(O)CNc1ccc([As](=O)(O)O)cc1	inactive: 1.97%
CC(C)(C)C(=O)NC(Sc1ccncn1)C(Cl)(Cl)Cl (stereo unspecified)	inactive: 8.37%
O=[N+]([O-])c1ncn(CCn2ncnc2[N+](=O)[O-])n1	inactive: 1.53%
O=C(Nc1cc([As](=O)(O)O)ccc1O)c1ccccc1	inactive: 16.8%
Nc1ccc([As](=O)(O)c2ccc([N+](=O)[O-])cc2)cc1	inactive: 7.72%
C(Cc1nn[nH]n1)Cc1nn[nH]n1	inactive: 13.9%
O=C(OC1CN2CCC1CC2)c1cccc(Cl)c1 (stereo unspecified)	inactive: 5.79%
CC(=O)NC(SC(=S)N(C)C)C(Cl)(Cl)Cl (stereo unspecified)	inactive: 3.98%
O=[N+]([O-])c1ncn(CCn2cnc([N+](=O)[O-])n2)n1	inactive: 7.11%
O=[As](O)(c1ccccc1)c1ccc(O)cc1	inactive: 6.89%
C[C@H]1OP(=O)(Oc2ccccc2)[C@H](O)[C@H](O)[C@H]1N=[N+]=[N-] (stereo partly specified)	inactive: 8.2%
O=P(Nc1nc2ccccc2s1)(c1ccccc1)c1ccccc1	inactive: 5.71%
[N-]=[N+]=Nc1ccc([As](=O)(O)O)cc1	inactive: 6.55%
O=P(Nc1ccccn1)(c1ccc(Br)cc1)c1ccc(Br)cc1	inactive: 9.62%
C[C@@H](O)COc1ccc([As](=O)(O)O)cc1N	inactive: 13.2%
COc1ccc(/C=C2/C(=O)NC(=O)N(Cc3ccco3)C2=O)c(OC)c1	inactive: 9.33%
CN1CCC[C@H](OC(=O)C(c2ccccc2)c2ccccc2)C1	inactive: 9.85%

SMILES	inhibition
c1nnnn1CCn1cnnn1	inactive: 19.9%
O=P(Nc1nccs1)(c1ccccc1)c1ccccc1	inactive: 8.71%
CC(C)C(=O)NC(Sc1ccccc1)C(Cl)(Cl)Cl (stereo unspecified)	inactive: 1.95%
CC(=O)Nc1ccc(Oc2c([N+](=O)[O-])cc([N+](=O)[O-])cc2[N+](=O)[O-])cc1	inactive: 4.6%
CC(=O)Nc1ccc([As](=O)(O)O)c(O)c1	inactive: 15%
C[C@@H]1C=CCP(=O)(Oc2ccccc2)O1 (stereo partly specified)	inactive: 14.4%
C[C@H]1OP(=O)(Oc2ccccc2)C[C@@H]2O[C@@H]21 (stereo partly specified)	inactive: 14.3%
CC(C)(C)C(=O)NC(Sc1ccccc1)C(Cl)(Cl)Cl (stereo unspecified)	inactive: 1.44%
CCOc1ccc(C2=NCC(CBr)S2)cc1 (stereo unspecified)	inactive: 2.71%
O=P1(Nc2nc3ccc(Cl)cc3s2)COc2ccccc2O1 (stereo unspecified)	inactive: 5.66%
CN(C)C(=O)Oc1noc2ccccc12	inactive: 0.2%
O=c1c2cc([N+](=O)[O-])ccc2[nH]c2c([N+](=O)[O-])cc([N+](=O)[O-])cc12	inactive: 22.6%
Cc1ccccc1OP(=O)(Nc1ccccn1)Oc1ccccc1C	inactive: 5.91%
CC(=O)NC(SC(=S)N(CC(C)C)CC(C)C)C(Cl)(Cl)Cl (stereo unspecified)	inactive: 4.82%
Cc1ccc(OP(=O)(Nc2ccccn2)Oc2ccc(C)cc2)cc1	inactive: 2.9%
COC(=O)c1cc2c(s1)N=C(c1ccccc1)N(C)P2(=O)N1CCOCC1 (stereo unspecified)	inactive: 5.97%
CCC(=O)N1C2C3N(C(=O)CC)C1C1N(C(=O)CC)C(C(N1C(=O)CC)N3C(=O)CC)N2C(=O)CC	inactive: 12.1%
CN(C(=O)Cc1ccc(Cl)c(Cl)c1)[C@@H]1CCCC[C@@H]1N1CCCC1	inactive: 14.4%
O=c1[nH]cc(S(=O)(=O)F)c(=O)[nH]1	inactive: 16.1%
O=C(NC1CCS(=O)(=O)C1)NP(=S)(Oc1ccccc1)Oc1ccccc1 (stereo unspecified)	inactive: 5.42%
CCNC(=S)/N=C(\N)N[N+](=O)[O-]	inactive: 8.2%
Cc1ccc(NP(=O)(Oc2cccc(C)c2)Oc2cccc(C)c2)nc1	inactive: 3.77%
CCOC(=O)NC(Sc1ccccc1)C(Cl)(Cl)Cl (stereo unspecified)	inactive: 2.91%
c1ccc(-c2nn[nH]n2)c(-c2nn[nH]n2)c1	inactive: 9.52%
CN(C(=O)Cc1ccc(Cl)c(Cl)c1)[C@H]1CC[C@@]2(CCCO2)C[C@@H]1N1CCCC1	inactive: 14.1%
O=[N+]([O-])c1ccc2c(c1)nnn2O	inactive: 4.05%

SMILES	inhibition
CCOP1(=S)c2c(C)nn(CCC#N)c2N=C(c2ccc(F)cc2)N1C (stereo unspecified)	inactive: -1.66%
CN(C(=O)Cc1ccccc1)[C@@H]1CC[C@]2(CCCO2)C[C@H]1N1CCCC1	inactive: 12.4% and inactive: 17.2%
NC(=O)c1nsnc1NCCCl	inactive: 5.79%
NC(=O)Nc1ccc([As](=O)(O)O)cc1	inactive: 16.2%
O=C(O)COc1ccc([As](=O)(O)O)cc1[N+](=O)[O-]	inactive: 8.98%
Nc1ccccc1[As](=O)(O)c1ccccc1	inactive: 7.93%
O=[As](O)(O)c1ccc([As](=O)(O)O)cc1	inactive: 7.02%
CS(=O)(=O)c1cc([N+](=O)[O-])c2no[n+]([O-])c2c1	inactive: 17.3%
O=P(Nc1nccs1)(c1ccccc1)c1nc2ccccc2s1 (stereo unspecified)	inactive: 7.12%
O=P(Nc1nccs1)(Oc1ccccc1)Oc1ccccc1	inactive: 7.77%
CCOP1(=S)c2c(C)nn(CCC#N)c2N=C(c2ccccc2F)N1C (stereo unspecified)	inactive: 9.25%
CCOP(=O)(Nc1cccc2ccccc12)OCC	inactive: 3.65%
COc1cc(C2NCCC3(OCCO3)C2(C)C)cc(OC)c1OC (stereo unspecified)	inactive: 6.8%
CCCOP(=S)(Nc1nc(N)cc(=O)[nH]1)OCCC	inactive: 1.99%
O=C(CC(=O)c1ccccc1)O[C@H]1CN2CCC1CC2	inactive: 13%
Cc1ccc(NCCc2c([N+](=O)[O-])cc([N+](=O)[O-])cc2[N+](=O)[O-])cc1	inactive: -1.23%
Nc1cccc2c([As](=O)(O)O)cccc12	inactive: 0.36%
NS(=O)(=O)Cc1ccc([As](=O)(O)O)cc1	inactive: 12.3%
O=[As](O)(c1cccc(O)c1)c1cccc(O)c1	inactive: 8.67%
Cc1cccc(OCC(=O)OC2CN3CCC2CC3)c1 (stereo unspecified)	inactive: 1.21%
COc1cc(C(=O)NCC2(N3CCOCC3)CCCCC2)cc(Cl)c1OC(C)C	inactive: 3.37%
O=[As](O)(O)c1cccnc1	inactive: 3.54%
CN(C(=O)Cc1ccc(Cl)c(Cl)c1)[C@@H]1CC[C@]2(CCCO2)C[C@H]1N1CCCC1	inactive: 14.7%
O=C(OC1CN2CCC1CC2)c1ccc(Cl)cc1 (stereo unspecified)	inactive: 12%
COC(=O)c1nsnc1NCCCl	inactive: 8.19%
CC1(CBr)Cn2c(nc3ccccc3c2=O)S1 (stereo unspecified)	inactive: -2.69%

SMILES	inhibition
O=[As](O)(c1ccccc1Br)c1ccccc1Br	inactive: 7.75%
CN(C(=O)Cc1ccc(Cl)c(Cl)c1)[C@@H]1CCCC[C@H]1N1CCCC1	inactive: 15.8% and inactive: 12.7%
CC(C)/C=N\N=C(\N)N[N+](=O)[O-]	inactive: 1.17%
CC(C)(C)C(=O)NC(Sc1ncccn1)C(Cl)(Cl)Cl (stereo unspecified)	inactive: 10.2%
Clc1n[nH]nc1-c1nn[nH][15n]1	inactive: 7.11%
CN(CCCl)Cc1cc(Cl)c(NC2=NCCN2)c(Cl)c1	inactive: 8.54% and inactive: 16.7%
CCOP(=O)(Nc1ccc(C)cn1)OCC	inactive: 4.15%
O=P1(Nc2ccccn2)COc2ccccc2OC1	inactive: 7.14%
O=P1(Nc2ccc(Br)cn2)COc2ccccc2OC1	inactive: 19%
Cc1ccc(OCC(=O)OC2CN3CCC2CC3)cc1 (stereo unspecified)	inactive: 9.54%
O=[As](O)(c1cccs1)c1cccs1	inactive: 5.22%
Nc1cccc([As](=O)(O)c2ccccc2)c1	inactive: 4.31%
O=P1(Nc2ncccn2)COc2ccccc2OC1	inactive: 5.61%
O=C(/C=C/c1ccccc1)OC1CN2CCC1CC2 (stereo unspecified)	inactive: 6.48%
CN(C)C1(CNC(=O)c2ccc(S(C)(=O)=O)cc2)CCCCC1	inactive: 7.78%
CC1CCC(C(C)C)C(OP(=O)(Nc2ccccn2)c2ccccc2)C1 (stereo unspecified)	inactive: 4.97%
Cc1nn(-c2ccccc2)c2c1P(=O)(N1CCOCC1)N(C)C(c1ccccc1)=N2 (stereo unspecified)	inactive: 9.64%
O=[N+]([O-])c1ccc(Nc2ccc(Oc3ccc([N+](=O)[O-])cc3[N+](=O)[O-])cc2)c([N+](=O)[O-])c1	inactive: 5.67%
Cc1cc(SC(NC=O)C(Cl)(Cl)Cl)ncn1 (stereo unspecified)	inactive: 9.99%
O=P(Nc1ccccn1)(c1cccc2ccccc12)c1cccc2ccccc12	inactive: 5.33%
CCOC(=O)Nc1cccc([As](=O)(O)O)c1	inactive: 8.56%
Cc1cc(SC(NC(=O)c2ccccc2)C(Cl)(Cl)Cl)nc(C(C)C)n1 (stereo unspecified)	inactive: 7.3%
Cc1ccc(N2C(=O)/C(=C/c3cn(CC(=O)NCc4ccco4)c4ccccc34)C(=O)NC2=S)cc1	inactive: 15.2%
